{
  "source": "patent EP4837902A1",
  "about": "“LIPID COMPOUND AND LIPID NANOPARTICLE FOR DELIVERY” (dated 2026)",
  "key": {"[1]": {"experiment": "Encapsulation efficiency of mRNA-loaded LNPs (RiboGreen assay kit, 10% OTG as demulsifier)", "conditions": "LNP of compound, cholesterol, DSPC, DMG-PEG2000 in molar ratio 50:38.5:10:1.5; encapsulated mRNA", "procedure": "(§1) An mRNA stock solution was dispersed in a 20 mM acetic acid solution (pH 5.3) to a final concentration of 200 µg/mL (aqueous phase). The example compound, cholesterol, DSPC, and DMG-PEG2000 were mixed in a molar ratio of 50:38.5:10:1.5 to form a mixed lipid (oil phase). Flow rates of the aqueous phase and the oil phase were controlled to mix mRNA with the lipid mixture via T-junction mixing, to obtain LNP encapsulated mRNA. The encapsulated LNPs were diluted with a buffer solution and then concentrated by ultrafiltration. The diluent was replaced. Finally, the LNPs were concentrated to an mRNA concentration of 100 µg/mL, and the pH of the LNPs was adjusted to about 7.0-8.5. Finally, the total mRNA content and free mRNA content in the LNPs were measured by using a RiboGreen assay kit and 10% OTG as a demulsifier, and the encapsulation efficiency of the LNPs was calculated. The final LNP product was diluted with a diluent, added (1 ml) to a particle size cell, and placed on a Malvern Zetasizer instrument to measure the particle size of the LNPs."}, "[2]": {"experiment": "Particle size and PDI of LNPs (Malvern Zetasizer)", "conditions": "LNP of compound, cholesterol, DSPC, DMG-PEG2000 in molar ratio 50:38.5:10:1.5; encapsulated mRNA", "procedure": "as §1"}, "BALB/c mice": {"test_system": "BALB/c mice", "experiment": "Delivery efficiency: luciferase expression after intramuscular injection of LNP-encapsulated luciferase mRNA (IVIS bioluminescence)", "conditions": "LNP with luciferase mRNA, intramuscular injection 0.25 mg/kg, 24 h, compared with Compound 2 and Compound NTX-C16 (FIG. 1)", "procedure": "• 1. Luciferase mRNA was encapsulated with LNP formulations of Compounds 1 to 3, NTX-C16, and MC3. A method for preparing the LNP formulations and a method for encapsulating the mRNA are as described in Test Example 1. • 2. The encapsulated LNP formulations were intramuscularly injected into BALB/c mice (injection dose: 0.25 mg/kg muscle), with 5 mice in each group. • 3. The luciferase fluorescence expression intensity of each mouse was measured at 24 h. • 4. Measurement of fluorescence expression intensity: D-Luciferin sodium salt (dose: 150 mg/kg) was intraperitoneally injected into each mouse 10 min before measurement. Then the mouse was anesthetized with isoflurane and placed in an IVIS instrument for measurement using bioluminescence. • 5. The delivery efficiency of each compound was evaluated based on the fluorescence intensity results"}},
  "data": [
    {"smiles": "CCCCCCCCCCC(=O)OCCCCCCC1(CCCCCCOC(=O)C(CCCCCC)CCCCCCCC)OCC(CCCCN(C)C)O1", "note": "(centres unmarked)", "values": [
      {"measurement": "Encapsulation efficiency", "setting": "[1]", "value": 97.16, "unit": "%"},
      {"measurement": "PDI", "setting": "[2]", "value": 0.04995},
      {"measurement": "Particle size", "setting": "[2]", "value": 116.9, "unit": "nm"},
      {"measurement": "luciferase fluorescence expression intensity", "setting": "BALB/c mice", "value": "significantly higher"}
    ]},
    {"smiles": "CCCCCCCCCCC(=O)OCCCCCCCCC1(CCCCCCCCOC(=O)C(CCCCCC)CCCCCCCC)OCC(CCCCN(C)C)O1", "note": "(centres unmarked)", "values": [
      {"measurement": "Encapsulation efficiency", "setting": "[1]", "value": 97.00, "unit": "%"},
      {"measurement": "PDI", "setting": "[2]", "value": 0.1833},
      {"measurement": "Particle size", "setting": "[2]", "value": 136.8, "unit": "nm"}
    ]},
    {"smiles": "CCCCCCCCCCC(=O)OCCCCCCCCC1(CCCCCCOC(=O)C(CCCCCC)CCCCCCCC)OCC(CCCCN(C)C)O1", "note": "(centres unmarked)", "values": [
      {"measurement": "Encapsulation efficiency", "setting": "[1]", "value": 91.45, "unit": "%"},
      {"measurement": "PDI", "setting": "[2]", "value": 0.07126},
      {"measurement": "Particle size", "setting": "[2]", "value": 111.7, "unit": "nm"},
      {"measurement": "luciferase fluorescence expression intensity", "setting": "BALB/c mice", "value": "significantly higher"}
    ]},
    {"smiles": "CCCCCCCCC(CCCCCC)C(=O)OCCCCCCC1(CCCCCCOC(=O)C(CCCCCC)CCCCCCCC)OCC(CCN(C)C)O1", "note": "(centres unmarked)", "values": [
      {"measurement": "Encapsulation efficiency", "setting": "[1]", "value": 95.88, "unit": "%"},
      {"measurement": "PDI", "setting": "[2]", "value": 0.09896},
      {"measurement": "Particle size", "setting": "[2]", "value": 69.74, "unit": "nm"}
    ]},
    {"smiles": "CCCCCCCCC(CCCCCC)C(=O)OCCCCCC1(CCCCCOC(=O)C(CCCCCC)CCCCCCCC)OCC(CCN(C)C)O1", "note": "(centres unmarked)", "values": [
      {"measurement": "Encapsulation efficiency", "setting": "[1]", "value": 95.50, "unit": "%"},
      {"measurement": "PDI", "setting": "[2]", "value": 0.1372},
      {"measurement": "Particle size", "setting": "[2]", "value": 64.56, "unit": "nm"}
    ]}
  ]
}
